From patent publication US7863262B2, “Nitroxyl progenitors in the treatment of heart failure” (Johns Hopkins University, priority 2002, dated 2011)
Read-outs that look alike come from different tables or passages of the source.

Key:
Format in all cases: in vivo, mongrel dogs
[1] = test system: conscious dogs experiencing CHF
[2] = test system: calcitonin gene-related peptide (CGRP)
[3] = test system: conscious dogs experiencing congestive heart failure (CHF)

Row | Compound | Ees when administered with dobutamine, versus dobutamine alone ([1]; dog, in vivo) | positive inotropic effect when administered with dobutamine, versus dobutamine alone ([1]; dog, in vivo) | blood plasma CGRP levels after stimulation ([2]; dog, in vivo) | positive inotropic effect when administered with dobutamine, versus dobutamine alone ([1]; CHF dogs, FIG. 5) | contractility (inotropic effect) as measured by Ees, DEDV and PRSW ([3]; compound alone, doses titrated to nearly equivalent end systolic pressure (Pes), FIG. 1-4) | Ees when administered with dobutamine, versus dobutamine alone ([1]; CHF dogs, FIG. 5) | inotropic effect under cardiac load conditions (volume loading, matched end-diastolic volume) ([3]; FIG. 2-4) | blood plasma CGRP levels after stimulation ([2]; normal and CHF dogs, artery, vein, coronary sinus, FIG. 7)
1 | CCN(CC)/[N+]([O-])=N/O.CCNCC [DEA/NO, diethylamine/NO, reference compound] | decrease in Ees | reduced the positive inotropic effect of dobutamine | failed to significantly increased CGRP levels |  |  |  |  | 
2 | CC(C)N[N+]([O-])=N[O-].[Na+] [IPA/NO, isopropylamine (IPA)/NO(Na(CH3)2CHNHN(O)NO)] |  |  |  | greater positive inotropic effect than administration of dobutamine alone | significant increases in contractility |  |  | 
3 | O=[N+]([O-])OCC(CO[N+](=O)[O-])O[N+](=O)[O-] [nitroglycerin, reference compound] |  |  |  | reduced the positive inotropic effect of dobutamine |  | decrease in Ees | even greater negative inotropic effect | failed to significantly increased CGRP levels
